Screening data as filed in PubChem BioAssay.
KDM4E inh = blocks human JMJD2E demethylase activity. B2RXH2. JMJD2E catalytic domain, FDH-coupled NADH fluorescence (FDH is formaldehyde dehydrogenase). Potency, µM (top dose mostly 57.1 µM), for inactives: at the top dose activity change, negative = inhibition, usual class: inhibitors. 1.6% of 230,000 active. AID 2147; active = well fitted inhibition curve with a large enough effect, not every such curve was filed as active; inconclusive = small, poorly fitted or top-dose-only effect, or another doubt; inactive = no such curve, though single readings can be large or run the other way;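 also: potency is read from the fitted curve at half-maximal effect; 0% = wells with enzyme and -100% = buffer wells without enzyme; nearly all actives have a fitted effect of over 50% in size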
G9a inh = blocks human histone lysine methyltransferase G9a. G9a H3K9 monomethylation, AlphaScreen, 2 h. Potency, µM (highest dose often 102 µM), for inactives: at the highest dose activity, negative = inhibition, actives largely listed as inhibitors. 8.8% of 350,000 active. AID 504332; also: potency is read from the fitted curve at half-maximal effect; % is scaled to controls: 0 for no effect and ±100 for the full control effect; nearly all actives have a fitted effect of over 75% in size
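Chemiluminescent proximity detection of H3K9 monomethylation, read after 10 min bead incubation in the dark. Reaction: 20 nM G9a, 500 nM biotin-H3K9 peptide, 20 uM SAM cofactor, 2 h, room temperature, following 15 min enzyme-compound preincubation.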
LMNA splice mod = changes lamin A minigene splicing in HeLa cells | HeLa LMNA splicing GFP/RFP minigene ratio, 48 h | Potency, µM (doses to about 46.1 µM), for the others: at the top dose ratio change, negative = inhibition, most hits filed as inhibitors | 0.01% of 200,000 active; active = well fitted inhibition curve with a large enough effect in the signal ratio, with a control signal flat, not every such curve was filed as active; inconclusive = small, poorly fitted or top-dose-only effect, or effect the other way, or a change in a side signal; the % refers to the signal ratio; also: potency is read from the fitted curve at half-maximal effect; % is scaled to controls: 0 for no effect and ±100 for the full control effect
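Read-out is the ratio of GFP to DsRed2 object intensity, acquired by 488 nm laser-scanning cytometry on HeLa lamin A-EGFP minigene reporter cells. Compound incubation 48 hrs at 37 °C in Opti-MEM with 2% FBS; DMSO 0.5% final.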
ALDH1A1 block = blocks purified human ALDH1A1 activity. P00352. Purified ALDH1A1, NADH fluorescence, propionaldehyde substrate. Potency, µM (series often up to 75.3 µM), inactives show at the highest dose activity, negative = inhibition, usual class: inhibitors. 7.3% of 220,000 active. AID 1030; active = well fitted inhibition curve with a large enough effect, not every such curve was filed as active; inconclusive = small, poorly fitted or top-dose-only effect, or another doubt; inactive = no such curve, though single readings can be large or run the other way;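 also: potency is read from the fitted curve at half-maximal effect; plate controls were no enzyme wells and a reference inhibitor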
Sfp PPTase inh = qHTS Assay for Inhibitors of Bacillus subtilis Sfp phosphopantetheinyl transferase (PPTase); 4'-phosphopantetheinyl transferase ffp (Bacillus subtilis), Q9F4F7; Biochemical Sfp PPTase activity, qHTS; Potency, µM, inactives show max response, negative = inhibition, hits mostly inhibitors; 310,000 compounds, 3.5% hits; AID 1490, 2009; active means well fitted inhibition curve with a large enough effect; inconclusive means small, poorly fitted or top-dose-only effect, or another doubt; inactive means no such curve, though single readings can be large or run the other way;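 further: the enzyme is Sfp with the accession as filed and its product quenches rhodamine fluorescence; potency means the concentration at half of the fitted maximal effect; 0% = enzyme reaction without inhibitor and -100% = no enzyme wells; top concentration of the series not given in the record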
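With Hepes-Na pH 7.6 buffer containing 10 mM MgCl2, Sfp (15 nM) modified BHQ-2-YbbR (12.5 uM) using rhodamine-CoA (5 uM). Two reads 30 minutes apart at 525/598 nm yielded each well's rate.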
miR-21 reporter = raises the signal of a miR-21 reporter | HeLa miR-21 FLuc reporter, luciferase, 48 h | Potency, µM (highest dose often 38.3 µM), without a hit: at the top dose reporter change, positive = more light | 340,000 tested, under 10 active; active = well fitted rising curve with a large enough effect; inconclusive = small, poorly fitted or top-dose-only effect; inactive = no such curve, though single readings can be large or run the other way;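 note: % of control where 0% means no effect; miR-21 action dims this reporter so a rising signal means less miR-21 action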
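Luminescence from a firefly luciferase reporter carrying a miR-21 binding site downstream, stably expressed under a CMV promoter in HeLa cells that make miR-21 endogenously, reports miRNA modulation after 48 h compound exposure up to approximately 40uM final.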
* marks the source's active call; other numbers are inactive results; ? = inconclusive; . = not tested or not shown; [ ] = another dose, or the depositor's remark. Sampled rows, rich in hits. Any-hit rate of the full collection: about 13%. Unless noted, calls follow the shape of the dose curve; as a rule, active = well fitted curve in the direction sought with a large enough effect; inconclusive = small, poorly fitted or top-dose-only effect, or another doubt; inactive = no such curve, though single readings can be large; an effect the other way counts as inactive or inconclusive.

Letters – A = KDM4E inh; B = G9a inh; C = LMNA splice mod; D = ALDH1A1 block; E = Sfp PPTase inh; F = miR-21 reporter
1	O=C(NN1C(=O)/C(=C/c2cccs2)SC1=S)c1cccnc1
  A = -11%; B = 50µM*; C = .; D = .; E = -12%; F = -3%

2	O=C(NN1C(=O)/C(=C/c2cccs2)SC1=S)c1ccccc1
  A = -3%; B = 7%[59 µM]; C = -18%; D = -3%; E = -4%; F = -9%

3	O=C(NN1C(=O)CSC1=S)c1cccnc1
  A = -29%; B = 50µM*; C = .; D = .; E = 56µM*; F = 4%

4	COc1ccc(-n2c(/C=C/c3cccc4ccccc34)nc3ccccc3c2=O)cc1Cl
  A = .; B = -3%[59 µM]; C = -2%[46 µM]; D = .; E = .; F = -4%

5	CCOC(=O)C1C(C(=O)OC)=C(C(=O)OC)c2ccccc2N1S(=O)(=O)C(F)(F)F (stereo not given)
  A = .; B = -5%[59 µM]; C = .; D = -7%; E = 12%; F = .

6	COc1ccc(Br)cc1CN1CCCC(C(=O)N2CCCCC2)C1 (stereo not given)
  A = ?; B = 10µM*; C = 11%; D = ?; E = -16%; F = -1%

7	COc1ccccc1CN1CCCC(C(=O)N2CCCCC2)C1 (stereo not given)
  A = ?; B = 18µM*; C = .; D = .; E = -8%; F = 0%

8	COc1ccc(C(=O)N2CCCC(C(=O)O)C2)c2ccccc12 (stereo not given)
  A = .; B = 45µM*; C = .; D = .; E = 2%; F = -4%

9	COc1ccc(OC)c(CN2CCCC(C(=O)N3CCCCC3)C2)c1 (stereo not given)
  A = ?; B = -6%[2.33 µM]; C = 1%; D = ?; E = ?; F = -5%

10	COc1ccc(OC)c(NC(=O)N2CCCC(C(=O)c3ccccc3OC)C2)c1 (stereo not given)
  A = 11%; B = ?; C = .; D = 13µM*; E = -3%; F = -12%

11	COc1ccc(-c2nc3cnc(N4CCNCC4)nc3n(-c3ccccc3)c2=O)cc1
  A = .; B = 12%[12.7 µM]; C = .; D = ?; E = 1%; F = .

12	COc1cc(NC(=O)C(CC(C)C)N2Cc3ccccc3C2=O)cc(OC)c1 (stereo not given)
  A = .; B = 0%[59 µM]; C = ?; D = .; E = .; F = -2%

13	O=C(C1CC(=O)N(C2CCCC2)C1)N1CCN(c2ccccc2)CC1 (stereo not given)
  A = .; B = ?; C = .; D = .; E = 10%; F = -3%

14	COc1ccc(Br)cc1CN1CCC(N2CCCC2)CC1
  A = .; B = 25µM*; C = .; D = .; E = ?; F = -8%

15	COc1ccc(CN2CCN(C(=O)C3CC(=O)N(C4CCCCCC4)C3)CC2)c(OC)c1OC (stereo not given)
  A = 6%; B = -37%[59 µM]; C = 14%; D = 20µM*; E = 11%; F = 24%

16	COc1ccc(Br)cc1CN1CCCC(C(=O)N2CCCCCC2)C1 (stereo not given)
  A = -22%; B = 27%[0.501 µM]; C = 3%[0.0737 µM]; D = -10%; E = ?; F = 12%

17	COc1cccc(NC(=O)CCC2CCN(C(=O)c3cncs3)CC2)c1
  A = .; B = 40µM*; C = .; D = .; E = -10%; F = 3%

18	CS(=O)(=O)Nc1cccc(-c2cncnc2NCc2ccccc2)c1
  A = .; B = -25%[0.501 µM]; C = -7%; D = -1%; E = -15%; F = .

19	O=c1c(CN2CCN(c3ccccn3)CC2)coc2ccccc12
  A = 2%; B = ?; C = 0%; D = 25µM*; E = -8%; F = -36%

20	Brc1ccc(CN2CCN(c3ccccn3)CC2)s1
  A = ?; B = 14µM*; C = -7%; D = ?; E = -16%; F = -14%

21	Oc1c(CN2CCN(c3ccccn3)CC2)cc(Cl)c2cccnc12
  A = ?; B = ?; C = ?; D = -1%; E = -10%; F = 22%

22	CC[C@H](C)[C@H](NC(=O)[C@H](C)NC(=O)[C@H](CC(=O)O)NC(=O)[C@H](CO)NC(=O)[C@@H](N)Cc1cnc[nH]1)C(=O)N[C@@H](Cc1ccccc1)C(=O)N[C@H](C(=O)N[C@@H](CCC(N)=O)C(=O)N[C@@H](CCC(N)=O)C(=O)N[C@@H](Cc1ccc(O)cc1)C(=O)N[C@@H](CO)C(=O)N[C@@H](CCCCN)C(=O)N[C@@H](CC(C)C)C(=O)N[C@@H](CC(C)C)C(=O)N[C@@H](C)C(=O)N[C@@H](CCCCN)C(=O)N[C@@H](CC(C)C)C(=O)N[C@@H](C)C(=O)N[C@@H](CC(C)C)C(=O)N[C@@H](CCC(N)=O)C(=O)N[C@@H](CCCCN)C(=O)N[C@@H](Cc1ccc(O)cc1)C(=O)N[C@@H](CC(C)C)C(=O)N[C@@H](C)C(=O)N[C@@H](CO)C(=O)N[C@H](C(=O)N[C@@H](CC(C)C)C(=O)NCC(=O)N[C@@H](CO)C(=O)N[C@@H](CCCNC(=N)N)C(=O)N[C@H](C(=O)N[C@@H](CO)C(=O)N1CCC[C@H]1C(=O)N1CCC[C@H]1C(=O)N1CCC[C@H]1C(N)=O)[C@@H](C)O)[C@@H](C)CC)[C@@H](C)O
  A = .; B = .; C = .; D = .; E = 22%; F = .

23	CCCCCCCCCCCC
  A = .; B = .; C = .; D = .; E = 5%; F = .

24	Fc1ccc(-c2ccc(/C=N\n3cnnc3)o2)cc1Cl
  A = -6%; B = 2%[59 µM]; C = 5%; D = -10%; E = -10%; F = -4%

25	CN1CCN(/N=C/c2ccc(-c3ccc([N+](=O)[O-])cc3Cl)o2)CC1
  A = -4%; B = 25µM*; C = -30%[46 µM]; D = -5%; E = -5%; F = -13%

Quoted from above: entries 1 to 3
Letters – A = KDM4E inh; B = G9a inh; C = LMNA splice mod; D = ALDH1A1 block; E = Sfp PPTase inh; F = miR-21 reporter
1	O=C(NN1C(=O)/C(=C/c2cccs2)SC1=S)c1cccnc1
  A = -11%; B = 50µM*; C = .; D = .; E = -12%; F = -3%

2	O=C(NN1C(=O)/C(=C/c2cccs2)SC1=S)c1ccccc1
  A = -3%; B = 7%[59 µM]; C = -18%; D = -3%; E = -4%; F = -9%

3	O=C(NN1C(=O)CSC1=S)c1cccnc1
  A = -29%; B = 50µM*; C = .; D = .; E = 56µM*; F = 4%

Continuation:
Letters – A = KDM4E inh; B = G9a inh; C = LMNA splice mod; D = ALDH1A1 block; E = Sfp PPTase inh; F = miR-21 reporter
26	Cc1cc(-c2ccc(/C=N/n3cnnc3)o2)c(C)c([N+](=O)[O-])c1
  A = .; B = 40µM*; C = .; D = .; E = -19%; F = -20%

27	CC(C)COC(=O)c1cc(-c2ccc(/C=N/n3cnnc3)o2)ccc1Cl
  A = -3%; B = 10µM*; C = -5%; D = ?; E = -7%; F = -25%

28	O=[N+]([O-])c1ccc(Cl)c(-c2ccc(/C=N/n3cnnc3)o2)c1
  A = .; B = 71µM*; C = .; D = .; E = -7%; F = -2%

29	COc1cc([N+](=O)[O-])ccc1-c1ccc(/C=N\n2cnnc2)o1
  A = .; B = .; C = .; D = .; E = -23%; F = -1%

30	O=[N+]([O-])c1cc(-c2ccc(/C=N/n3cnnc3)o2)ccc1Cl
  A = .; B = .; C = .; D = .; E = -7%; F = 1%

31	Cc1ccc(C)c(Nc2nc3c(S(=O)(=O)c4ccc(C(C)C)cc4)nnn3c3ccsc23)c1
  A = .; B = -31%[59 µM]; C = .; D = .; E = .; F = ?

32	Cc1ccc(C)c(Nc2nc3c(S(=O)(=O)c4ccc(Br)cc4)nnn3c3ccsc23)c1
  A = .; B = 18µM*; C = .; D = .; E = .; F = ?

33	C[N+]1(CC(=O)OCCCc2ccccc2)CCCC1
  A = ?; B = 10µM*; C = 4%; D = -6%; E = 1%; F = 0%

34	CCOC(=O)C1CCN(C(=O)Cc2ccc(-c3ccccc3)cc2)CC1
  A = .; B = .; C = .; D = .; E = 18%; F = 12%

35	COC(=O)[C@@]1(Cc2ccc(OC)cc2)[C@H]2c3cc(C(=O)N4CCCC4)n(Cc4ccc(C)c(F)c4F)c3C[C@H]2CN1C(=O)c1ccccc1
  A = ?; B = .; C = .; D = -4%; E = 2%; F = .

36	Cc1cccc(CC2S/C(=N/c3ccccn3)NC2=O)c1 (stereo not given)
  A = 6%; B = 3%[59 µM]; C = -12%; D = 0%; E = -24%; F = -13%

37	Clc1ss/c(=N\c2ccccn2)c1Cl
  A = -5%; B = 1.8µM*; C = 4%; D = ?; E = 35µM*; F = -8%

38	COc1ccc2oc(=O)c(C(=O)N3CCN(c4cc(Cl)ccc4Cl)CC3)cc2c1
  A = .; B = ?; C = .; D = .; E = .; F = -2%

39	O=C1CSC(c2ccccc2[N+](=O)[O-])N1c1ccc(O)cc1 (stereo not given)
  A = ?; B = ?; C = ?; D = ?; E = 50µM*; F = 0%
